# Measured values: PubChem BioAssay AID2435 (The Scripps Research Institute Molecular Screening Center, 2010)
# The chains behind the UniProt entries cited, without tags or fusion partners.
# UniProt P30559, whole entry: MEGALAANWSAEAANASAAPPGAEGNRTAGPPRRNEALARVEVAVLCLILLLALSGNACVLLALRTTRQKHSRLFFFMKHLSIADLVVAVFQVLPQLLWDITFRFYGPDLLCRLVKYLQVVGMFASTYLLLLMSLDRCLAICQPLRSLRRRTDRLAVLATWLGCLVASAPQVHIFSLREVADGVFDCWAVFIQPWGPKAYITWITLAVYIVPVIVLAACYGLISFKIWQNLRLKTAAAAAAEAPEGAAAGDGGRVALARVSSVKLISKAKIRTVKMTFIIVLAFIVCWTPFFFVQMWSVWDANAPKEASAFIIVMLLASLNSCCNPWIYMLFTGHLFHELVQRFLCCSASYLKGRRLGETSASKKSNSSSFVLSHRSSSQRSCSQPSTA
# The entries are a selection whose mix differs from that of the whole data set. Calls of active or inactive are those of the source.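 The calls were made as follows: active = activation above the mean of all tested compounds plus 3 SD, cutoff set per screening run (cut at about 20% in these data); inactive = the rest.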
# Target: Oxytocin receptor (Homo sapiens) (UniProt P30559)
# Assay: oxytocin receptor activation by calcium flux – fluorescence, CHO-OTR cells, Fluo-8 calcium, primary screen (AID 2435);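 also: peak over basal fluorescence ratio from a 100 s FLIPR kinetic read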
# Conditions: Fluo-8 calcium fluorescence, at 3 µM, hits give high values, normalized: DMSO 0%, oxytocin 100%
row,Compound,activation
1,O=[N+]([O-])c1cc([N+](=O)[O-])c(-c2cnn(-c3ccccc3)c2)c([N+](=O)[O-])c1,inactive: -1.28%
2,Cc1cc(C)cc(OP(C)(=O)Nc2ccc(C)cc2C)c1 (stereo not drawn),inactive: 0.95%
3,CCOC(=O)c1ccc(NP(C)(=O)Oc2cc(C)cc(C)c2)cc1 (stereo not drawn),inactive: 5.34%
4,COc1ccccc1OP(C)(=O)Nc1cccc(Br)c1 (stereo not drawn),inactive: -2.21%
5,CP(=O)(Nc1cccc(Br)c1)Oc1ccccc1 (stereo not drawn),inactive: -1.17%
6,Cc1cc(C)cc(OP(C)(=O)Nc2ccccn2)c1 (stereo not drawn),inactive: -1.14%
7,Cc1ccc(C)c(NP(C)(=O)Oc2ccccc2)c1 (stereo not drawn),inactive: -1.62%
8,O=C(O)c1cccc(Nc2c([N+](=O)[O-])cc([N+](=O)[O-])cc2[N+](=O)[O-])c1,inactive: -0.16%
9,CC1=NCCc2c1[nH]c1ccccc21.O=[N+]([O-])c1cc([N+](=O)[O-])c(O)c([N+](=O)[O-])c1,inactive: -0.03%
10,CC(C)(C)c1ccc(OP(C)(=O)Nc2ccc(SC(F)(F)F)cc2)cc1 (stereo not drawn),inactive: -1.13%
11,Cc1cccc(C)c1OP(C)(N)=O (stereo not drawn),inactive: 0.74%
12,O=[N+]([O-])c1ccc2c(c1)C=Nc1ccccc1O2,inactive: -0.41%
13,O=[N+]([O-])c1cc([N+](=O)[O-])c(Nc2cccnc2)c([N+](=O)[O-])c1,inactive: 14.1%
14,COc1ccccc1OP(C)(=O)Nc1cc(Cl)ccc1C (stereo not drawn),inactive: 2.51%
15,COc1ccc(OP(C)(=O)Nc2cccc(F)c2)cc1 (stereo not drawn),inactive: 0.09%
16,Cc1cc(C)cc(OP(C)(N)=O)c1 (stereo not drawn),inactive: 0.85%
17,CCOC(=O)c1ccc(NP(C)(=O)Oc2ccccc2)cc1 (stereo not drawn),inactive: 0.41%

row,Compound,activation
1,COc1ccccc1OP(C)(=O)Nc1ccc(C)cc1 (stereo not drawn),inactive: -1.1%
2,Cc1ccc(NP(C)(=O)Oc2ccccc2)c(C)c1 (stereo not drawn),inactive: -1.35%
3,CCN(CC)CCCOC(=O)C(O)(c1ccccc1)c1ccccc1,inactive: -0.35%
4,CCc1ccc(OP(C)(=O)N2CCN(c3ccc([N+](=O)[O-])cc3)CC2)cc1 (stereo not drawn),inactive: 3.56%
5,CP(=O)(NC(=O)Nc1ccccc1)Oc1ccccc1 (stereo not drawn),inactive: -0.85%
6,Cc1cc(C)cc(OP(C)(=O)Nc2ccc(SC(F)(F)F)cc2)c1 (stereo not drawn),inactive: -1.14%
7,CP(=O)(Nc1ccc(SC(F)(F)F)cc1)Oc1ccc(Cl)cc1 (stereo not drawn),inactive: -1.73%
8,Cc1cccc(C)c1OP(C)(=O)Nc1ccc(SC(F)(F)F)cc1 (stereo not drawn),inactive: 1.98%
9,CP(=O)(Oc1ccccc1)OC(c1ccccc1)C(F)(F)F (stereo not drawn),inactive: -1.65%
10,CP(=O)(Nc1ccccn1)Oc1ccc(Cl)cc1 (stereo not drawn),inactive: 2.27%
11,CCOP(C)(=S)SCC(=O)NC(C)C(=O)O (stereo not drawn),inactive: 0.06%
12,O=[N+]([O-])c1cc([N+](=O)[O-])c(O)c([N+](=O)[O-])c1.c1ccc(Oc2ccncc2)cc1,inactive: 0.76%
13,CCOC(=O)c1ccc(NP(C)(=O)Oc2ccc(OC)cc2)cc1 (stereo not drawn),inactive: -0.49%
14,COc1ccccc1OP(C)(=O)Nc1ccccc1 (stereo not drawn),inactive: -0.86%
15,CP(=O)(Nc1ccccc1Br)Oc1ccccc1 (stereo not drawn),inactive: -0.21%
16,CP(=S)(Nn1cnnc1)Oc1ccccc1 (stereo not drawn),inactive: 1.52%
